In PubChem BioAssay AID705 (SRMLSC, 2007):
The list shows a part of the results, in another mix than the full data. Activity calls are given as the source filed them.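 How the source made its calls: active means growth inhibition above 25% in both replicates, a cutoff set 3 SD above the mean; inconclusive means above 25% in only one replicate; inactive means the rest.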

Test: OD615 S. cerevisiae growth inhibition, permissive medium, pilot counter-assay, permissive growth control for S. cerevisiae lifespan shortening project (AID 705)
Conditions: OD615, 24 h, at 10 µM, stronger effect = higher value
In short: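 Timing: 24 h exposure, 30 °C / Material: Saccharomyces cerevisiae strain carrying genetically modified DeaD replicative-lifespan system / Signal: OD at 615 nm / Compound: 10 µM single dose, 0.25% DMSO / Medium: SC raffinose/galactose permissive medium / Evaluation: reduction in yeast growth (OD615)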

Row | Structure (SMILES) | growth inhibition
1 | Fc1ccccc1NC1CCN(Cc2ccccc2)CC1 | inactive: -6%
